Test results from paper PMC10969092, “Characterization of Lysophospholipase D Activity in Mammalian Cell Membranes” (Cells, 2024).

Key:
PLA2 = test: In vitro membrane PLA2 assay (B-PC substrate, B-lyso-PC / B-lyso-PBt products); conditions: PC12K membranes; 1 h
lyso-PLD = test: In vitro membrane lyso-PLD assay (B-lyso-PC substrate, B-LPA product); assay type: biochemical, rat; conditions: PC12K membranes; 1 h

Substance: Methyl arachidonyl fluorophosphonate
- Effect on PLA2 activity (B-lyso-PC from B-PC) (PLA2): suppressed PLA2 activity
- Effect on lyso-PLD (B-lyso-PC as substrate) (lyso-PLD): not inhibited
